Protein sequences, listed by entry. Tags and fused reporters are not part of them.
UniProt Q01064, whole entry: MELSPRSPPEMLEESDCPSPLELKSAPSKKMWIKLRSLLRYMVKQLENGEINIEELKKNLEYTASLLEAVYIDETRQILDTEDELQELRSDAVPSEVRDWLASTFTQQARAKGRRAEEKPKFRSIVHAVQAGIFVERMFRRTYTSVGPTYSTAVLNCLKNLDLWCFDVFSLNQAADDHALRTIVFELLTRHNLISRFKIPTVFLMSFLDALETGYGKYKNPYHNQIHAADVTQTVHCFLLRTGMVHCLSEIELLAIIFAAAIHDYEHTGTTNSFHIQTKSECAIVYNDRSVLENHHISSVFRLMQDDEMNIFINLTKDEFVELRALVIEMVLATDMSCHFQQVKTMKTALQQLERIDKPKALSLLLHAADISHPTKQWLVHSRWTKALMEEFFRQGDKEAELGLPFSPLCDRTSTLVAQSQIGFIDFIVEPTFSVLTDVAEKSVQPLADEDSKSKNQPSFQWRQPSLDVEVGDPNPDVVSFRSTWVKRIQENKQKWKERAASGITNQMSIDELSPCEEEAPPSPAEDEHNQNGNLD
UniProt P54750, whole entry: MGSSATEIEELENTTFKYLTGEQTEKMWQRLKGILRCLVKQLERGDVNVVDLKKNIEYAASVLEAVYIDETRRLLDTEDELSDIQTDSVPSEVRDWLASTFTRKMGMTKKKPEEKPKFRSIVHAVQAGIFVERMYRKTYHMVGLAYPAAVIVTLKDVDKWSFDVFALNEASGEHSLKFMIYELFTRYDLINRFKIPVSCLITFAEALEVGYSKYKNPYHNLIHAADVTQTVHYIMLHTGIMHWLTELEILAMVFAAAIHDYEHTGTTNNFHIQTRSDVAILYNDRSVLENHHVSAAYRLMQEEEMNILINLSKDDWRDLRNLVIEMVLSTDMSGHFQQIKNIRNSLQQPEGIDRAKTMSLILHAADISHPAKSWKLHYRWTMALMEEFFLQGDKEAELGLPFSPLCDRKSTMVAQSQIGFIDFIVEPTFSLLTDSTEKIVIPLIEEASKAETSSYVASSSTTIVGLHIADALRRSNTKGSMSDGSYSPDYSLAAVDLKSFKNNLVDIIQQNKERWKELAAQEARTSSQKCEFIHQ
UniProt Q14123, whole entry: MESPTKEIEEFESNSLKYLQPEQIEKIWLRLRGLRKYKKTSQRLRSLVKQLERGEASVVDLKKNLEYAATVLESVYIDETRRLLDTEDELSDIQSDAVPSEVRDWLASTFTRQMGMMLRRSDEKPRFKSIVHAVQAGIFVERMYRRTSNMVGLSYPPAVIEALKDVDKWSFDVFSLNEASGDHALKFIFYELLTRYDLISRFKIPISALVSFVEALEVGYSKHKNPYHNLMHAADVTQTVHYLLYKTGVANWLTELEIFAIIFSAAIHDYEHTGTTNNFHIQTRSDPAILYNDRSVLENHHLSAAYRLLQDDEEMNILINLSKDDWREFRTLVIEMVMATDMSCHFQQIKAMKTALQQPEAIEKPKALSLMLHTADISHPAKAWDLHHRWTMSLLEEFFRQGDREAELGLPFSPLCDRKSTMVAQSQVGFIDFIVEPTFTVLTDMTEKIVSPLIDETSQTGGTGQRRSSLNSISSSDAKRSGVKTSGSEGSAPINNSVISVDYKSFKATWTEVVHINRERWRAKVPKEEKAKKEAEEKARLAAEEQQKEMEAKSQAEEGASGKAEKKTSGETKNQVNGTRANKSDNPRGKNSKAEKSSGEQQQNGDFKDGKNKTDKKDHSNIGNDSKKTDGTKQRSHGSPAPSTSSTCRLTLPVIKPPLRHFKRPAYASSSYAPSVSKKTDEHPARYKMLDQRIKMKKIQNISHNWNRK

According to patent US20160083400A1, “TRICYCLIC GUANIDINE DERIVATIVE” (Sunovion Pharmaceuticals Inc., priority 2014, published 2016):

Experiments:
PDE1B = PDE1B (Homo sapiens, UniProt Q01064); assay: In vitro HTRF PDE1 inhibition assay (PDE1B); conditions: read-out: IC50 (μM), in vitro PDE1B HTRF Assay, 100 nM cyclic GMP, calmodulin, 45 minutes at 37° C.
PDE1A (PDE 1A3) = PDE1A (PDE 1A3) (Homo sapiens, UniProt P54750); assay: In vitro HTRF PDE1 inhibition assay (PDE1A); conditions: read-out: IC50 (μM), in vitro PDE1A HTRF Assay; PDE1A (1A3); 100 nM cyclic GMP, calmodulin, 45 minutes at 37° C.
Text: (§1) An exemplary procedure for the in vitro Homogenous Time Resolved Fluorescence (HTRF) assay, which can be used to determine the inhibitory action of compounds of the invention toward PDE1 or its isoforms, follows.
(§2) The HTRF PDE1 assay utilized the HTRF technology, which is based on the competition between unlabeled cyclic nucleotide and cyclic nucleotide labeled with XL665 for the binding to cyclic nucleotide-specific antibody labeled with cryptate. The HTRF signal is thus inversely proportional to the concentration of cyclic nucleotide being measured. Since phosphodiesterases break down cyclic nucleotides the HTRF signal was used to determine PDE activity.
(§3) The Cisbio cGMP HTRF assay kit (Cat no: 62GM2PEC) was utilized. Cyclic GMP was diluted to 200 nM in HTRF assay buffer (1 mM CaCl2, 10 mM MgCl2, 10 mM Tris-HCl, 0.1% BSA, pH7.4). 10 μl of compound or DMSO was diluted in 200 nM cyclic GMP solution and added to wells of a 96 well white plate to give 100 nM cyclic GMP in 1% DMSO final concentration. PDE (1A3, 1B or 1C) was diluted to 2× working concentration in HTRF assay buffer with 4 μg/ml Calmodulin, and 10 μl was added to initiate the reaction. The plate was then incubated for 45 minutes at 37° C. d2-Labelled cyclic GMP and anti-cGMP cryptate were diluted in 50 mM phosphate buffer, 0.8M KF, 1% Triton X100, 0.2% BSA, pH7.0. Following incubation 10 μl d2-cGMP, then 10 μl anti cGMP cryptate were added to each well and the plate was incubated for 45 minutes at rt. The plate was then read on Perkin Elmer Victor at 2 different FRET readings ex/emm 340 nm/665 nm and 340 nm/615 nm.
(§4) Compounds having an IC50 of <1 μM, are denoted as +++. Compounds having an IC50 of 1-10 μM, are denoted as ++. Compounds having an IC50 of 10-100 μM, are denoted as +.

PDE1C = PDE1C (Homo sapiens, UniProt Q14123); assay: In vitro HTRF PDE1 inhibition assay (PDE1C)
Text: as §1, §2, §3, §4

`CC(C)c1ncc2c(=O)n3c(nn12)NC(c1ccc(Cl)cn1)C3` (stereo not drawn) was tested, and the IC50 (PDE1B) was under 1 µM, the IC50 (PDE1A (PDE 1A3)) was under 1 µM and the IC50 (PDE1C) was 1 to 10 µM.
In the case of `CC(C)c1nccc2c(=O)n3c(nc12)NCCC3c1ccc(Cl)cc1` (stereo not drawn), the IC50 (PDE1B) is reported as under 1 µM, the IC50 (PDE1A (PDE 1A3)) is reported as under 1 µM and the IC50 (PDE1C) is reported as under 1 µM.
Compound `CC(C)c1ccc(C2Cn3c(nn4c(C(C)C)ncc4c3=O)N2)nc1` (single isomer, unassigned) [202] has an IC50 (PDE1B) of under 1 µM, an IC50 (PDE1A (PDE 1A3)) of under 1 µM and an IC50 (PDE1C) of under 1 µM.
For `O=c1c2cnc(C3CCOCC3)n2nc2n1CC(c1ccc(Cl)cc1F)N2` (single isomer, unassigned), the IC50 (PDE1B) was under 1 µM, the IC50 (PDE1A (PDE 1A3)) was under 1 µM and the IC50 (PDE1C) was under 1 µM.
Work on `Cc1ccc(C2Cn3c(nn4c(C5CCOCC5)ncc4c3=O)N2)c(F)c1` (single isomer, unassigned) yielded an IC50 (PDE1B) of under 1 µM, an IC50 (PDE1A (PDE 1A3)) of under 1 µM and an IC50 (PDE1C) of under 1 µM.
With `CC(C)c1ncc2c(=O)n3c(nn12)N[C@@H](c1ccc(C(C)(C)C)nc1)C3` the IC50 (PDE1B) was under 1 µM, the IC50 (PDE1A (PDE 1A3)) was under 1 µM and the IC50 (PDE1C) was under 1 µM.
In the case of `CC(C)n1ncc2c(=O)n3c(nc21)NC(c1ccc(Cl)cc1)CC3` (stereo not drawn), the IC50 (PDE1B) is reported as under 1 µM, the IC50 (PDE1A (PDE 1A3)) is reported as under 1 µM and the IC50 (PDE1C) is reported as 1 to 10 µM.
